Literature values as cited in PMC6191370.

The chains behind the UniProt entries cited, without tags or fusion partners. Residues count along the entry.
UniProt P01589, 22-240, chain 1 of 3: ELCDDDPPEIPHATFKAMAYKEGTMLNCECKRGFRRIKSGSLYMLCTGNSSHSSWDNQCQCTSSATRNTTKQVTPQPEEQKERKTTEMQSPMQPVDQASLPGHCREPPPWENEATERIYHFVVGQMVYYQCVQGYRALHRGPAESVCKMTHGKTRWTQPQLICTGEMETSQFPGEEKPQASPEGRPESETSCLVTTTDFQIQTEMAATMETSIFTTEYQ
UniProt P60568, 21-153: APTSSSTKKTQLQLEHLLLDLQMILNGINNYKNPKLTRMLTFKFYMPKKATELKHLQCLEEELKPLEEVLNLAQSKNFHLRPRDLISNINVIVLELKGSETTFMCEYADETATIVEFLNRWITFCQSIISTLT

Target: high-affinity IL-2R (alpha/beta/gamma chains) (Homo sapiens) (UniProt P01589)

Kd: 0.01 nM
Substance: IL-2 (from UniProt P60568)
